Test results: patent US20060216238A1, “Compositions and methods for targeting or imaging a tissue in a vertebrate subject” (priority 2005, published 2006)

Experiment: CPMV injections in adult mice (tail vein), tissue cryosections
Assay type: in vivo, mouse
Protocol: CPMV injections in adult mice. CPMV-AlexaFluor555 conjugate and/or FITC-dextran (10 kDa, Molecular Probes) (50 μg-1 mg in 0.1-0.2 mL PBS) were injected in the tail vein of CD-1 mice and allowed to circulate for 5 min up to 72 hrs. Tissues were fixed in 4% paraformaldehyde for 4 hours and frozen in Tissue Tek OCT embedding medium (Sakura Finetek) before sectioning. The 20 μm cryosections were mounted with Vectashield mounting medium (Vector Laboratories) before examination under a fluorescent microscope (Zeiss Axioplan2). In the experiments that utilized PEG-coated fluorescent CPMV, adult mice were injected in the tail vein with 250 μg or 500 μg of either CPMV-FITC or CPMV-PEG-FITC, and tissues were collected after 1 hr.

FITC-dextran
depletion from the circulation (adult mice, tail vein): gradually depleted from the circulation over 72 h
onset of accumulation in liver and spleen (after tail vein injection): almost immediately
